Laboratory results from patent publication US20230331674A1 (priority 2020, published 2023).

System: Caco-2 cell monolayers
Test: In vitro permeability assay with Caco2 cells
Description: They were grown on Transwell® culture inserts with a polycarbonate membrane (diameter, 12 mm; pore size, 0.4 μm). 50,000 cells/filter membranes were used for seeding and the medium was changed every two days. At day 18, transepithelial electrical resistance (TEER) was measured for each filter with Caco-2 cell monolayers. […] The samples were acidified by dilution with the same volume of 0.01 M HCl before fluorescence measurements.
Ringer buffer with 10 mM d-glucose or 10 mM mannitol on apical and basolateral side of the tissue, respectively, was used as an incubation saline. […] The experiment started by the addition of stock solutions of (±)-N-((1-benzylpiperidin-3-yl)methyl)-N-(2-methoxyethyl)naphthalene-2-sulfonamide hydrochloride and fluorescein in the donor compartment to provide final 100 μM donor concentration of (±)-N-((1-benzylpiperidin-3-yl)methyl)-N-(2-methoxyethyl)naphthalene-2-sulfonamide and 20 μM fluorescein. The stock solutions were added either to the apical or to the basolateral compartment to obtain bidirectional permeability measurements. Six samples were withdrawn in 20 min intervals. Each time 300 μl was taken from the 1500 μL basolateral acceptor compartment and 100 μL from the 500 μL apical acceptor compartment. These volumes were immediately replaced by the appropriate fresh incubation saline. The concentrations of (±)-N-((1-benzylpiperidin-3-yl)methyl)-N-(2-methoxyethyl)naphthalene-2-sulfonamide in the samples were determined by HPLC-UV immediately after the experiment.

[1] = Caco-2, after inhibition with PSC833
[2] = Caco-2 monolayers, no inhibitor

Rhodamine123
apical-to-basolateral apparent permeability coefficient [1]: 1 ×10⁻⁶ cm/s | basolateral-to-apical apparent permeability coefficient [1]: 2.5 ×10⁻⁶ cm/s | Efflux ratio (Caco-2, after inhibition with selective ABCB1 inhibitor PSC833): 2.5 | Efflux ratio Papp(B-A)/Papp(A-B) [2]: 7.3 | Papp(A-B), apical-to-basolateral apparent permeability coefficient [2]: 1.1 ×10⁻⁶ cm/s | Papp(B-A), basolateral-to-apical apparent permeability coefficient [2]: 7.7 ×10⁻⁶ cm/s
